{"source": "patent US5728829A", "about": "“Process of preparing benzodiazepine compounds useful as antagonists of CCK or of gastrine” (Ferring-Research Limited, priority 1993, dated 1998)", "system": "pentagastrin-stimulated gastric acid secretion", "experiment": "Measurement of inhibition of pentagastrin-stimulated gastric acid secretion in rat", "details": "intravenous", "data": [{"smiles": "Cc1cccc(NC(=O)N[C@@H]2N=C(c3ccccc3)c3ccccc3N(C)C2=O)c1", "values": [{"measurement": "% Inhibition (maximum inhibition of gastric acid secretion)", "setting": "at 0.3 μmol/kg, mean for 3-5 animals", "result": 28, "unit": "%"}, {"measurement": "ED50 (dose reducing secreted gastric acid to 50% of the maximum level)", "setting": "table 3, \"Relative ED50 values\", anaesthetised rat, pentagastrin 15 μg/Kg/hr", "result": 4.2, "unit": "µmol/kg"}]}]}
